The record followed here is paper PMC6199309, “A therapeutic approach to pantothenate kinase associated neurodegeneration” (Nature Communications, 2018).

By UniProt entry, the sequences of proteins in these tests, tags left out.
UniProt Q9H999, whole entry: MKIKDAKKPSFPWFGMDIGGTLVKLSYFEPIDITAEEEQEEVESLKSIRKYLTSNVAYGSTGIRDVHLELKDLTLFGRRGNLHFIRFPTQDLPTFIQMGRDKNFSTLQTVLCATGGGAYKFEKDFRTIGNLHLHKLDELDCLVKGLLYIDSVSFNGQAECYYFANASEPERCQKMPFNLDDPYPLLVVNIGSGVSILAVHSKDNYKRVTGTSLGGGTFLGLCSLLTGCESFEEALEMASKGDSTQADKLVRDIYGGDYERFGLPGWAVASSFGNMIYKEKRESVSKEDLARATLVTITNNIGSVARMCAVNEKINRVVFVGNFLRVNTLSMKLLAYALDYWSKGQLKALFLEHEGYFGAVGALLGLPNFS

Structures are written as SMILES.

This test addresses human PANK3 (Homo sapiens, UniProt Q9H999). Nature of the test: PANK activity assay (radiochemical, without acetyl-CoA). It is filed as biochemical.

For orientation: IC50 means the midpoint of a concentration-inhibition curve. For the compound `CC(C)c1ccc(NC(=O)N2CCN(c3ccc(C#N)cn3)CC2)cc1`, the “type of PANK3 inhibition with respect to ATP” value (ATP varied 0–125 μM) is given as “uncompetitive”. Moreover, the “type of PANK3 inhibition with respect to pantothenate” value (pantothenate varied 0–180 μM) is reported as “noncompetitive”. The IC50 (read-out: IC50 (PANK3), without acetyl-CoA, 2.5 mM ATP, 45 μM pantothenate) was 1100 nM.
